These results are taken from patent EP0303391B1, “Optical isomers of a spiroquinuclidine derivative” (State of Israel Represented by the Prime Minister's Office …, priority 1987, dated 1989).

Like-named read-outs stand apart in the source and are kept apart here.

The target in experiment [1] is muscarinic receptors. The experiment is classed as binding. The conditions noted are these: rat forebrain homogenates, mean ± spread (n), Ki = IC50 ÷ (1 + C/KD), read-out: Ki(^3H-QNB).
Experiment [2] has as its target muscarinic receptors. Put plainly: Displacement of 3H-cis-dioxolane (3H-CD) from rat forebrain homogenates. The experiment is classed as binding. As to conditions: mean ± spread (n), Ki = IC50 ÷ (1 + C/KD). A general note: In a radioligand displacement assay an active substance lowers the binding of a labelled ligand.

Take `CC1OC2(CS1)CN1CCC2CC1` (racemic) [(±)-cis-isomer, (±)-cis-2-methylspiro(1,3-oxathiolan-5,3')quinuclidine]: the Ki – broadly, a dissociation constant, usually derived from enzyme kinetics or from competition with a known ligand – was 6.3 ± 1 µM on muscarinic receptors [1] (listed as 4) and 0.45 ± 0.18 µM on muscarinic receptors [2] (listed as 4).
As to `CC1OC2(CS1)CN1CCC2CC1` (racemic) [(±)-trans-isomer, (±)-trans-2-methylspiro(1,3-oxathiolan-5,3')quinuclidine], the Ki at muscarinic receptors [1] (listed as 3) is 24.7 ± 2.3 µM; at muscarinic receptors [2] (listed as 3), 1.8 ± 0.1 µM.
Turning to `CC1OC2(CS1)CN1CCC2CC1` (single isomer, unassigned; (+)) [(+)-cis-isomer, (+)-cis-2-methylspiro(1,3-oxathiolan-5,3')quinuclidine], the values for the Ki at muscarinic receptors [1] (listed as 6) and on muscarinic receptors [2] (listed as 6) were 36.4 ± 8 µM and 7.5 µM, respectively.
For `CC1OC2(CS1)CN1CCC2CC1` (single isomer, unassigned; (-)) [(-)-cis-isomer, (-)-cis-2-methylspiro(1,3-oxathiolan-5,3')quinuclidine], the figures for the Ki at muscarinic receptors [1] (listed as 5) and at muscarinic receptors [2] (listed as 5) were 3.5 ± 1.5 µM and 0.21 ± 0.06 µM, respectively.
